# Ab-95 light chain CDR variants: yeast mating affinities

The measurements come from Engelhart et al. 2022 (doi:10.1038/s41597-022-01779-4) through the FLAb antibody collection.

Target peptide (SARS-CoV-2 spike, HR2 region): PDVDLGDISGINAS

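The parent was found by panning a naive human phage display library on the peptide. Library AAYL52 holds single substitutions and randomly drawn double and triple substitutions in the CDRs. In AlphaSeq, yeast of one mating type display the scFv and yeast of the other type display the target. Mating (16 h, 30 °C) was followed by selection of diploids and sequencing of their barcodes. Scores were corrected for input abundance and mapped to Kd with protein pairs of known affinity run in the same pool. The assay was run in three technical replicates.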

Ab-95 is the parent antibody, in scFv form: VH, then three GGGGS repeats, then VL. The heavy chain is unchanged in all variants.
VH: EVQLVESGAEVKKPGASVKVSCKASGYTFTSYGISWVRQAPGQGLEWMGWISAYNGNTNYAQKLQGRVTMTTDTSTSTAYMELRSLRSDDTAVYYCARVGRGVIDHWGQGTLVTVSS
VL: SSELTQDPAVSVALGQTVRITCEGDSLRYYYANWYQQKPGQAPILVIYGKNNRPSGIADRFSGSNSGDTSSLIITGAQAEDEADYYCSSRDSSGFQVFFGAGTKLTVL

Changes read parent residue, position, new residue, counted from the first residue of the VL shown.
Values are log10 of the apparent Kd in nM; lower means stronger binding.
The mean shown is taken over the replicates in which the pair was detected.
"nd" marks a missing value. The strain was present, yet no cells mated with the target were sequenced in any replicate, which points to weak or no binding.
Order: sorted from the lowest average up, undetected variants last.
Background: pairings of library AAYL52 with three empty control strains gave a value in 28% of cases (median 3.91, 5th percentile 2.90). Values in that range, when seen in few replicates, are hard to tell from nonspecific mating.

With Y30D/N52I/V97R the result was 1.50 (3 of 3 replicates).
With D25H/Y30L/R53K the result was 1.54 (3 of 3 replicates).
With Y29G/P54E/S93M the result was 1.92 (3 of 3 replicates).
With L27T/Y29N/Y31G the result was 1.94 (3 of 3 replicates).
With Y30R/P54H/S55N the result was 2.14 (3 of 3 replicates).
With Y29M/Y31T/S92T the result was 2.38 (3 of 3 replicates).
With N33R/N51G the result was 2.46 (3 of 3 replicates).
With E23G/Y30C/A32T the result was 2.66 (3 of 3 replicates).
With D91I/F95Y/F98V the result was 2.79 (3 of 3 replicates).
With S26G/N52R/S88A the result was 2.84 (3 of 3 replicates).
With Y30W/G49Q/F98A the result was 2.93 (3 of 3 replicates).
With E23V/P54K/V97H the result was 3.08 (2 of 3 replicates).
With A32K/R90Y/F95P the result was 3.32 (2 of 3 replicates).
With S26Q/Y30C/D91E the result was 3.34 (1 of 3 replicates).
With N33R/D91P/F95S the result was 3.46 (2 of 3 replicates).
With E23L/A32H/S55H the result was 3.48 (2 of 3 replicates).
With G24C/S93A/F95D the result was 3.60 (3 of 3 replicates).
With L27E/S93W/F98W the result was 3.84 (2 of 3 replicates).
With L27V/Y29H/K50W the result was 3.88 (1 of 3 replicates).
With A32Y/N51R/R53V the result was 3.89 (3 of 3 replicates).
With R28H/S88T/D91H the result was 3.89 (2 of 3 replicates).
With S88N/G94R/V97C the result was 3.99 (1 of 3 replicates).
With A32R/R90C/F95E the result was 4.14 (2 of 3 replicates).
With G49F/K50C the result was 4.18 (2 of 3 replicates).
With L27R/N33E/P54D the result was 4.23 (2 of 3 replicates).
With N51S/S89I/G94K the result was 4.25 (3 of 3 replicates).
With N33I/S88M/F98L the result was 4.27 (3 of 3 replicates).
With A32L/N52T/V97I the result was 4.28 (1 of 3 replicates).
With G24R/R53I/S55Y the result was 4.35 (1 of 3 replicates).
With Y31R/N52P/S89M the result was 4.86 (2 of 3 replicates).
With E23G/R53F/F98E the result was 4.86 (2 of 3 replicates).
With L27G/N33W/S88V the result was 5.09 (1 of 3 replicates).
With G24C/R28K/S92D the result was 5.17 (1 of 3 replicates).
With D25K/N33L/N52M the result was 5.80 (2 of 3 replicates).
With E23C/S93E/V97M the result was nd (0 of 3 replicates).
With Y30K/R90A/Q96F the result was nd (0 of 3 replicates).
With R28V/S93D/V97L the result was nd (0 of 3 replicates).
With A32Q/S88A/S89E the result was nd (0 of 3 replicates).
With S88C/R90Q/S92L the result was nd (0 of 3 replicates).
With L27P/A32C/V97A the result was nd (0 of 3 replicates).

Top 4 of the variants detected in all replicates, tightest first:

{"changes": "Y30D/N52I/V97R", "log10 Kd (nM), mean": "1.50", "replicates with signal": "3/3"}
{"changes": "D25H/Y30L/R53K", "log10 Kd (nM), mean": "1.54", "replicates with signal": "3/3"}
{"changes": "Y29G/P54E/S93M", "log10 Kd (nM), mean": "1.92", "replicates with signal": "3/3"}
{"changes": "L27T/Y29N/Y31G", "log10 Kd (nM), mean": "1.94", "replicates with signal": "3/3"}